Results published in BindingDB's records for doi:10.1016/s0028-3908(97)00049-x (Roche Bioscience, 1997).

Protein sequences, listed by entry. Tags and fused reporters are not part of them. Lines headed by an entry give the natural chain unless they say otherwise; changes in a name come on top.
UniProt P14842, whole entry: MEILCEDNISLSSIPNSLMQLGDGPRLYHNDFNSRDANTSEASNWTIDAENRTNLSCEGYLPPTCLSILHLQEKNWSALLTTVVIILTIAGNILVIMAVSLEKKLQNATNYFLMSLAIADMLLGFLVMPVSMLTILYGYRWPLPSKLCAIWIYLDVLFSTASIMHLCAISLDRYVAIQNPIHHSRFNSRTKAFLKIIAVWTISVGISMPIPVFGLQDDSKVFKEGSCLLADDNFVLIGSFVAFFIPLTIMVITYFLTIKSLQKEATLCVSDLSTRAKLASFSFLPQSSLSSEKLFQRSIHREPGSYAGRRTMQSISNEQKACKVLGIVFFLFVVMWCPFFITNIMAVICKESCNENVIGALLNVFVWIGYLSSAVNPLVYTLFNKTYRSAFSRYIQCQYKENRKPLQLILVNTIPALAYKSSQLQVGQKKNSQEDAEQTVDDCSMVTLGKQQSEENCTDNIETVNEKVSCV
UniProt P28335: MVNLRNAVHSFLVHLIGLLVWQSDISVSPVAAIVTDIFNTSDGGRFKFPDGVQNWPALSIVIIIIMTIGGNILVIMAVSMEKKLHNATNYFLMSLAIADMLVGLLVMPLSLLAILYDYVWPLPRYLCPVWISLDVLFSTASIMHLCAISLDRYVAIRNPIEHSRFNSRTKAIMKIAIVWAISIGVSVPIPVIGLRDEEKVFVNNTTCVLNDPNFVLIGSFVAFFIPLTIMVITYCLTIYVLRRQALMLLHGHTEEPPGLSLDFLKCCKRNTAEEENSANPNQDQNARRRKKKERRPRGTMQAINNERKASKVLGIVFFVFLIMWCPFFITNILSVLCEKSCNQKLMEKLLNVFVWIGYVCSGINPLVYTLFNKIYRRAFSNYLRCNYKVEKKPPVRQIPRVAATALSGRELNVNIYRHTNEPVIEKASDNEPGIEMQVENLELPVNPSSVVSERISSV
UniProt P41595, whole entry: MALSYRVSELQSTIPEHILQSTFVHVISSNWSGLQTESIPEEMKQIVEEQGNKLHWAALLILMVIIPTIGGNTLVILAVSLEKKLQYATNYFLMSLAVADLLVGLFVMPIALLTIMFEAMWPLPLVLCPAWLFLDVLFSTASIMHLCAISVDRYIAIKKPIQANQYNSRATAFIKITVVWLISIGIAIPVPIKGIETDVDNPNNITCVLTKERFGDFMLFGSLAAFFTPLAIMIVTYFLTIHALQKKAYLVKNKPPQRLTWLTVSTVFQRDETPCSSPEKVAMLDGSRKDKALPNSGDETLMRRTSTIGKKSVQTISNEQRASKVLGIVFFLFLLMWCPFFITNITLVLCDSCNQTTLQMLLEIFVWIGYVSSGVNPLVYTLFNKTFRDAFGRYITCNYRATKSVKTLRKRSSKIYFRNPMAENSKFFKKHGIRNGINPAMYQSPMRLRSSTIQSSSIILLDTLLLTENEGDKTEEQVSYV
UniProt P28223, whole entry: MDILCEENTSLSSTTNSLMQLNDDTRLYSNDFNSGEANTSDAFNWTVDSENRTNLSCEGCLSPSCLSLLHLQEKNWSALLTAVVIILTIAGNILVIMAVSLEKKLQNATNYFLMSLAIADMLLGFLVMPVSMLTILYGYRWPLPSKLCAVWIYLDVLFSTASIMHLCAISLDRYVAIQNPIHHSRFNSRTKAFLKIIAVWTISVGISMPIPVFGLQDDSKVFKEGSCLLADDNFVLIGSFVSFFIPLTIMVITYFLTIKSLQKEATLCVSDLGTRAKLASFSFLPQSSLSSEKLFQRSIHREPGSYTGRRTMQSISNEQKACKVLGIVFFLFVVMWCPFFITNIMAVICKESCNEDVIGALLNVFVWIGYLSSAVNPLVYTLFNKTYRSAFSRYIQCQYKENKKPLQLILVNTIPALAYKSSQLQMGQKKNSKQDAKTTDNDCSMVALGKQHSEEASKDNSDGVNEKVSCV

Legend:
[1] = target: T1, 5-hydroxytryptamine receptor 2C (Rattus norvegicus, UniProt P08909)
T1 sequence (P08909 whole entry): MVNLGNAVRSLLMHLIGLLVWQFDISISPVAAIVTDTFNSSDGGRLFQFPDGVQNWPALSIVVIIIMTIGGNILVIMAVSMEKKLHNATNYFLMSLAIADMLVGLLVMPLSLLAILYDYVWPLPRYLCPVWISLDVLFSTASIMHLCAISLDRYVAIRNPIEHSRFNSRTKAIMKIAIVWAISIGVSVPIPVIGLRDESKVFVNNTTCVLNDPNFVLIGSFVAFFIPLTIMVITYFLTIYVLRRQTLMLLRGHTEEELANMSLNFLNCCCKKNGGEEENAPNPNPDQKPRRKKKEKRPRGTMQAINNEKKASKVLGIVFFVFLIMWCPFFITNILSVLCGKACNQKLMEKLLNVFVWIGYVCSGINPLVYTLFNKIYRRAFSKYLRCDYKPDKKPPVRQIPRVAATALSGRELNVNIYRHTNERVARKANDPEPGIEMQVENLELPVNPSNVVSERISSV

[2] = target: 5-hydroxytryptamine receptor 2A (Rattus norvegicus, UniProt P14842)
[3] = target: 5-hydroxytryptamine receptor 2C (Homo sapiens, UniProt P28335)
[4] = target: 5-hydroxytryptamine receptor 2B (Homo sapiens, UniProt P41595)
[5] = target: 5-hydroxytryptamine receptor 2A (Homo sapiens, UniProt P28223)

## COc1ccc2[nH]cc(CCN)c2c1 [tryptamine, 5-Methoxy]
[1]
  Ki: 63.1 nM
[2]
  Ki: 141 nM

## O=C(CCCN1CCC2(CC1)C(=O)NCN2c1ccccc1)c1ccc(F)cc1 [8-[4-(4-fluorophenyl)-4-oxidanylidene-butyl]-1-phenyl-1,3,8-triazaspiro[4.5]decan-4-one]
[1]
  Ki: 871 nM
[2]
  Ki: 0.42 nM

## Clc1cccc(N2CCNCC2)c1 [mCPP]
[3]
  Ki: 105 nM
[4]
  Ki: 37.1 nM
[5]
  Ki: 112 nM

## CSc1ccc2c(c1)C(N1CCN(C)CC1)Cc1ccccc1S2 (stereo not drawn) [methanesulfonic acid;1-methyl-4-(3-methylsulfanyl-5,6-dihydrobenzo[b][1]benzothiepin-5-yl)piperazine]
[4]
  Ki: 1.54 nM
